Paper PMC3865070 (Neuropharmacology, 2013)

Protein sequences, listed by entry. Tags and fused reporters are not part of them. Residues count along the entry.
UniProt Q9R1M7, 24-1115 isoform Q9R1M7-2 limits assumed: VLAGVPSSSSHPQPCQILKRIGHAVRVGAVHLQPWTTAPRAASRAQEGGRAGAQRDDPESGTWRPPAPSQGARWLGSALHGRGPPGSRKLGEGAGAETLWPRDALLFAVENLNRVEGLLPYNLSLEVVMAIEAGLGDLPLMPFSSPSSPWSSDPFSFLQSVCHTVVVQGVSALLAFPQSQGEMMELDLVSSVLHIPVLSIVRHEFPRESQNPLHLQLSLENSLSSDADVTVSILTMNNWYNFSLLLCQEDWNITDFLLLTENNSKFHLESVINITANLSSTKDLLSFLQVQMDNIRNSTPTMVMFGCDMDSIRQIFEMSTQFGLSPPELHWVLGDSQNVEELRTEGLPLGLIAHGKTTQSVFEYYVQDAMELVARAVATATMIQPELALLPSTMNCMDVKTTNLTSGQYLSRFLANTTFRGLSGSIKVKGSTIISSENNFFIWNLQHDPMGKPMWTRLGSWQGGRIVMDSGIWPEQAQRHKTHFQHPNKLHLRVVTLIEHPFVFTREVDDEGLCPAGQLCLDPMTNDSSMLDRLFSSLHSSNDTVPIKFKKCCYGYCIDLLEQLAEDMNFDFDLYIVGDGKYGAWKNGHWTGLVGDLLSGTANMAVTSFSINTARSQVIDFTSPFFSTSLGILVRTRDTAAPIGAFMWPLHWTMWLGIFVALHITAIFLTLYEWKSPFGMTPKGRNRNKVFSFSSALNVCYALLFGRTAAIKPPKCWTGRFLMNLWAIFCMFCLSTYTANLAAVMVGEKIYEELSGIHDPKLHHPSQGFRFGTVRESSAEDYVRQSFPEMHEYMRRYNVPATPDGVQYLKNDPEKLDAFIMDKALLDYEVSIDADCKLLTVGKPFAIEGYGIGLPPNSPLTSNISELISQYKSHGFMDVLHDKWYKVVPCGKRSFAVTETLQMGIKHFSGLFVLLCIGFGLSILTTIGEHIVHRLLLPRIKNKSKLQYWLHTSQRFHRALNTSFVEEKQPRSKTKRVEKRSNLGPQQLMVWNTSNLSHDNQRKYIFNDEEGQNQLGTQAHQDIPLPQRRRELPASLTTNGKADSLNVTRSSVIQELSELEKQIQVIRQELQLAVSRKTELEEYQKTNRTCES

Assays:
GluN1/N2A = GluN1/N2A (Rattus norvegicus, UniProt P35439); experiment: Two-electrode voltage-clamp recordings, Xenopus oocytes expressing GluN1/N2A; format: cell-based; conditions: glycine co-applied with 100 μM glutamate
GluN1(A714L)/N2A = GluN1(A714L)/N2A (Rattus norvegicus, UniProt P35439, A714L)
GluN1(V689L)/N2A = GluN1(V689L)/N2A (Rattus norvegicus, UniProt P35439, V689L)
GluN1(R523A)/N2A = GluN1(R523A)/N2A (Rattus norvegicus, UniProt P35439, R523A); conditions: glycine co-applied with 100 μM glutamate
GluN1(F484A)/N2A = GluN1(F484A)/N2A (Rattus norvegicus, UniProt P35439, F484A); conditions: F484A mutation vs GluN1/N2A
GluN1(T518L)/N2A = GluN1(T518L)/N2A (Rattus norvegicus, UniProt P35439, T518L)
GluN1/N3A receptors = GluN1/N3A receptors (Rattus norvegicus, UniProt P35439+Q9R1M7); conditions: negligible current responses
[1] = glycine co-applied with 100 μM glutamate

**Q.** With NCC(=O)O [glycine] as the compound, how does the “Hill coefficient (nH)” value (GluN1/N2A) read?
**A.** 1.48

**Q.** And the “increase in glycine EC50” value (GluN1(A714L)/N2A; A714L mutation vs GluN1/N2A)?
**A.** 25 fold

**Q.** And the “Hill coefficient (nH)” value (GluN1(A714L)/N2A; [1])?
**A.** 1.28

**Q.** And the “increase in glycine EC50” value (GluN1(V689L)/N2A; V689L mutation vs GluN1/N2A)?
**A.** 60 fold

**Q.** And the “Hill coefficient (nH)” value (GluN1(V689L)/N2A; [1])?
**A.** 1.24

**Q.** What about the “Hill coefficient (nH)” value (GluN1(R523A)/N2A) of the same compound?
**A.** 1.56

**Q.** And the “increase in glycine EC50” value (GluN1(F484A)/N2A)?
**A.** 3000 fold

**Q.** What about the “increase in glycine EC50” value (GluN1(T518L)/N2A; T518L mutation vs GluN1/N2A) of the same compound?
**A.** 6000 fold

**Q.** What about the “Hill coefficient (nH)” value (GluN1(T518L)/N2A; [1]) of the same compound?
**A.** 1.68

**Q.** And the “current responses upon glycine application” value (GluN1/N3A receptors)?
**A.** < 10 nA
